Here are results for one compound from US20250332141A1, “A PHARMACEUTICAL COMPOSITION COMPRISING AN INHIBITOR OF GLUTAMINE SYNTHETASE ENZYME TO COMBAT ARTEMISININ RESISTANCE IN MALARIA” (Institute of Life Sciences, priority 2022, published 2025).

In general, Ki refers to a measure of affinity in units of concentration, obtained from inhibition or displacement.

For experiment [1], the target named is T1, rPfGS (Plasmodium falciparum glutamine synthetase) (Plasmodium falciparum, UniProt C0H551).
T1 sequence (C0H551 1-543): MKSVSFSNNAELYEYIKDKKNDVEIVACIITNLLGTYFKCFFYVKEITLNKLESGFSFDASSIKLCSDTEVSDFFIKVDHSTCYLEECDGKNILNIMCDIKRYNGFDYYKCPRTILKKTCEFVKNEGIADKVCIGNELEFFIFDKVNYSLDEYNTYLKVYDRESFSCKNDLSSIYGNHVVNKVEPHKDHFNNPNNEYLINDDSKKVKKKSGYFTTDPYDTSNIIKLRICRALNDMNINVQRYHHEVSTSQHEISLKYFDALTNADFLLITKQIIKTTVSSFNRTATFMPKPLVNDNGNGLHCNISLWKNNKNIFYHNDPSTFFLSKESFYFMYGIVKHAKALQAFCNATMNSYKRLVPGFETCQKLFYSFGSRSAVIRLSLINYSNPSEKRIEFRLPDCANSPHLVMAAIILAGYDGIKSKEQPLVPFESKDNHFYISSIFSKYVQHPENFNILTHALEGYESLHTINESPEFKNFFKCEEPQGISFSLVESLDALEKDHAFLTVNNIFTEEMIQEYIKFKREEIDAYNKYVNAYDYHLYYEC
Nature of the experiment: Recombinant PfGS enzyme assay (HPLC glutamine formation / Pi release) and inhibition. The format is biochemical.

For experiment [2], the system named is Pf asexual stages (Pf3D7 cultures). The experiment is described as follows: MSO and PPT inhibition of in vitro growth of Pf cultures. Type of experiment: cell-based, Plasmodium falciparum. The note with it: RPMI medium containing physiological levels (0.5 mM) of glutamine (RPMI^Pgln). The method, then: The parasites were subcultured with fresh RBCs when the culture parasitemia reached around 2-5%. […] The isolated parasites were washed thoroughly with ice cold PBS for four times to remove the carry-over of proteins from RBC lysates. ART-resistant PfCam3.I^R539T strain was also maintained in a similar fashion. Giemsa-stained smears were routinely prepared to examine the parasite growth and parasitemia. Parasite growth assessment for experiments was carried out by Giemsa-stained smears, flow cytometry and ^3H-hypoxanthine uptake. […] The radioactive counts were measured using MicroBeta^2 Microplate Counters (PerkinElmer).

Molecules are shown by their SMILES.

Take `CS(=N)(=O)CC[C@H](N)C(=O)O` (stereo partly drawn) [MSO, L-methionine sulfoximine]: the Ki in experiment [1] was 5.64 ± 0.39 µM. Also, the “IC50 in RPMI^Pgln relative to IC50 in RPMI^-gln” value in experiment [2] is recorded as ~10 times higher.
